Source: ChEMBL document CHEMBL1135380, “Synthesis and structure-activity relationship of 2-(aminoalkyl)-2,3,3a,8-tetrahydrodibenzo[c,f]isoxazolo[2,3-a]azepine derivatives: a novel series of 5-HT(2A/2C) receptor antagonists. Part 1” (Bioorg Med Chem Lett, 2002)

Protein sequences, listed by entry. Tags and fused reporters are not part of them.
UniProt P61169, whole entry: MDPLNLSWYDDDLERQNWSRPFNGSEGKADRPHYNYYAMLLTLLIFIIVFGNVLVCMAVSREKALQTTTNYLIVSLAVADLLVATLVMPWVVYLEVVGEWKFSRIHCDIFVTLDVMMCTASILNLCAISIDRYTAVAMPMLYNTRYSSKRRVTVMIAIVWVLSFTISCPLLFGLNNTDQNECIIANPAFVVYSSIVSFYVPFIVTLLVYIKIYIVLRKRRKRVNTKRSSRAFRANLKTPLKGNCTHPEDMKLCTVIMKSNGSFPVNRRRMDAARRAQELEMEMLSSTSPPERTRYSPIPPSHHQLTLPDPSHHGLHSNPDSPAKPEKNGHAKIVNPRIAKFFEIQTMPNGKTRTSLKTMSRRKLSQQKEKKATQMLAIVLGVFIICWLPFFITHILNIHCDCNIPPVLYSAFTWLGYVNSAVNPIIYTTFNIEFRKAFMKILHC

Target: D(2) dopamine receptor (Rattus norvegicus, UniProt P61169)
Experiment: Binding affinity for rat Dopamine receptor D2

CN1CCN2c3ccccc3Cc3ccccc3C2C1 (stereo unspecified) [MIANSERIN]
IC50: 3.55 µM
